Data: US20240261250A1 (priority 2020, published 2024)

Tested on: primary microglia lysosomes
Assay: BPB entry into microglial lysosomes (kiss-and-run), quenching of lysosomal fluorescence
Conditions: PAO + 1 mM BPB, WT microglia

O=[As]c1ccccc1 (centres unmarked)
discoloration of lysosomal fluorescence in BPB solution (at 50 seconds vs 0 seconds): 55.1% | discoloration of lysosomal fluorescence in BPB solution (at 200 seconds vs 0 seconds): 69.1%
